Experiments:
Histone deacetylase 1 = Histone deacetylase 1 (Homo sapiens, UniProt Q13547); test: Ratio of IC50 for HDAC1 (unknown origin) preincubated for 5 mins to IC50 for HDAC1 (unknown origin) preincubated for 120 mins
Histone deacetylase 2 = Histone deacetylase 2 (Homo sapiens, UniProt Q92769); test: Ratio of IC50 for HDAC2 (unknown origin) preincubated for 5 mins to IC50 for HDAC2 (unknown origin) preincubated for 120 mins
Histone deacetylase 3 = Histone deacetylase 3 (Homo sapiens, UniProt O15379); test: Ratio of IC50 for HDAC3 (unknown origin) preincubated for 5 mins to IC50 for HDAC3 (unknown origin) preincubated for 120 mins

Sequences of proteins named here, by UniProt entry; tags and fusion partners are left off. A change or cut given only in a name is not applied to a line headed by its entry.
UniProt Q13547, whole entry: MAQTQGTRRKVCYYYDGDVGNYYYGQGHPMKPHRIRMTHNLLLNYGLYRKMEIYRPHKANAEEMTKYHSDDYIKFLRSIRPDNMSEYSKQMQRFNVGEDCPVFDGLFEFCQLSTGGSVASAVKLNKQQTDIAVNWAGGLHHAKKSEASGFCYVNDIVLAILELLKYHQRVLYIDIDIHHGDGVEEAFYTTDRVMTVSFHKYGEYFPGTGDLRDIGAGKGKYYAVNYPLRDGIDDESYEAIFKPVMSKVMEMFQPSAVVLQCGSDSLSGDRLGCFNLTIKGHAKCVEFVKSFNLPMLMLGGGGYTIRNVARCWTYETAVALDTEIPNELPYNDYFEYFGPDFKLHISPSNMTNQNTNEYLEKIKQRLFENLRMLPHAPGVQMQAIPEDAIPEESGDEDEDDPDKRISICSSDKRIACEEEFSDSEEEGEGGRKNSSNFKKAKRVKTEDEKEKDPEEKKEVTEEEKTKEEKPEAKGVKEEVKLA
UniProt Q92769, whole entry: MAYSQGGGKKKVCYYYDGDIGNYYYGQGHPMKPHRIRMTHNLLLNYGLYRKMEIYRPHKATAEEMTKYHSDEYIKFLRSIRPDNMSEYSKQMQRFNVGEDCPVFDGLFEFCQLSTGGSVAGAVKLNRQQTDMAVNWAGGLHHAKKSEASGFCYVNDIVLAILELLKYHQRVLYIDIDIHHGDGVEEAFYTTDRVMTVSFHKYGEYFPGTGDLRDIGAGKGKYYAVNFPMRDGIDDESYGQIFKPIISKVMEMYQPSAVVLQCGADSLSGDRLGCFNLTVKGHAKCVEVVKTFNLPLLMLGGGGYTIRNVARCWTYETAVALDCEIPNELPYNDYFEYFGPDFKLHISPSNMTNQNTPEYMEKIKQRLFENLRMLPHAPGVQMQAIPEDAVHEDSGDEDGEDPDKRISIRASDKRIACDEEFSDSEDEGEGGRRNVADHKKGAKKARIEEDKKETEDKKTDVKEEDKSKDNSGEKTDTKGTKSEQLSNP
UniProt O15379: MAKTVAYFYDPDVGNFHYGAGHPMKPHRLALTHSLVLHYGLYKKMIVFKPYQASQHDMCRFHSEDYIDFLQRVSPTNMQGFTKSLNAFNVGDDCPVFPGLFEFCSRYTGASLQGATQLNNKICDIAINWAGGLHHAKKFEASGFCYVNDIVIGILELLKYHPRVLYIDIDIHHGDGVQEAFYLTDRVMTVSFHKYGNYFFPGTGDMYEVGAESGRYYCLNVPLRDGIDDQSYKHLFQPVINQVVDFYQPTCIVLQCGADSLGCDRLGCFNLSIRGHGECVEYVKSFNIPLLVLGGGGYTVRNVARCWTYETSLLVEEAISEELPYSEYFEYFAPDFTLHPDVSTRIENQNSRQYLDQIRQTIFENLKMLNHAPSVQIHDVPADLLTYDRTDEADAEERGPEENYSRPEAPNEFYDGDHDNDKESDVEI

- Ratio IC50 (Histone deacetylase 1): 3
- Ratio IC50 (Histone deacetylase 2): 3
- Ratio IC50 (Histone deacetylase 3): 3
Compound: CCCNNC(=O)CCCCCCC(=O)Nc1ccccc1
